Literature values as cited in US7825126B2 (The United States of America as represented by the …, priority 2004, dated 2010).

Sequences of proteins named here, by UniProt entry; tags and fusion partners are left off.
UniProt P0DMS8, whole entry: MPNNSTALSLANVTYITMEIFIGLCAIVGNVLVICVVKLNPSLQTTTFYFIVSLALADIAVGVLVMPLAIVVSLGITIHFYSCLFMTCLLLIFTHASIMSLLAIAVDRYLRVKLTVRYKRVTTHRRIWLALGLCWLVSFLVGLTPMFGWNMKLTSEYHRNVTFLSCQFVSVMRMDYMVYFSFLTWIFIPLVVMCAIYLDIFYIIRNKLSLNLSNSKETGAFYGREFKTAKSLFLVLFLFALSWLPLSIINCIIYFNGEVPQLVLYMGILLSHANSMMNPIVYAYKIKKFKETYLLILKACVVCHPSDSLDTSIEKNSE

Biological target: human A3 adenosine receptor (Homo sapiens, UniProt P0DMS8)
Set-up: expressed in transfected cells; host or cells: CHO cells
Conditions: relative to 10 μM Cl-IB-MECA, data from literature (footnotes c, d, e, f); cited from earlier work

CNc1ncnc2c1ncn2C1OC(CO)C(O)C1O (stereo not shown) [Compound 6]
% Activation (hA3AR) at 10 μM: 96 ± 3%
